The values that follow come from patent US9321773B2, “Compounds” (Respivert Ltd, priority 2009, dated 2016).

By UniProt entry, the sequences of proteins in these tests, tags left out.
UniProt P42336, whole entry: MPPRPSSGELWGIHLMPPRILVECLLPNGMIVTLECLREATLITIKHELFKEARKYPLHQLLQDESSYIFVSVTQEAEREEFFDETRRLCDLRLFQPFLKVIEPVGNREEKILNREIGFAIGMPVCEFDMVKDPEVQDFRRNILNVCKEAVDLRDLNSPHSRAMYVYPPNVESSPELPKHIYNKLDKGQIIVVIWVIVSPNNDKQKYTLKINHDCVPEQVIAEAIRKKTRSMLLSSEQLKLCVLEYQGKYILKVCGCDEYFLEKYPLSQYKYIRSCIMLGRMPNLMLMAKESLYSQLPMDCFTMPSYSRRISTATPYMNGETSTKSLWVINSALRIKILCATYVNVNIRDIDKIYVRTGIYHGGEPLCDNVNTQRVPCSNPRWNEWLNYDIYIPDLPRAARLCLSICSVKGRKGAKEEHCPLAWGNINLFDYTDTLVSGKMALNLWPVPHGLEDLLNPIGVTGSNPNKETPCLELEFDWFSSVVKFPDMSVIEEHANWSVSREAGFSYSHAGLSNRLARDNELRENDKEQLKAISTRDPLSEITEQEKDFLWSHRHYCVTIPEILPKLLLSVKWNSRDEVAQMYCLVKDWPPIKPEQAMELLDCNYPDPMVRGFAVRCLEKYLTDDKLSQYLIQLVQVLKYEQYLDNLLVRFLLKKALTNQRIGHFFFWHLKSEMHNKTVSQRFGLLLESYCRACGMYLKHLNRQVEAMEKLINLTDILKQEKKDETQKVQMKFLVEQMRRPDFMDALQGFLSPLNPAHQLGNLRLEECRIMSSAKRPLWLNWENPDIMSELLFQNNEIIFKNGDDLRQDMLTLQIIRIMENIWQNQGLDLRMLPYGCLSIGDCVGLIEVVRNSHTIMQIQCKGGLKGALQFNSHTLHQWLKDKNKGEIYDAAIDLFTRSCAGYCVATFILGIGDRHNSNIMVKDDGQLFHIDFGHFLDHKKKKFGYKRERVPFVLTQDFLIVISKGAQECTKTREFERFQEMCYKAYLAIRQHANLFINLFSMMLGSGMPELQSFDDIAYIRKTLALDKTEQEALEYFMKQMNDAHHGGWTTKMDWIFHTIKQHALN

Molecules are shown by their SMILES. pIC50: −log10 of the molar value. Read-outs that look alike come from different tables or passages of the source.

The target of the test is recombinant PI3 kinase α (Homo sapiens (Human), UniProt P42336). Put plainly: Enzyme Inhibition Assay (HTRF PI3K enzyme assay, TR-FRET). In kind it is biochemical. The text has this: PI3 kinases catalyse the phosphorylation of phosphatidylinositol 4,5-biphosphate (PIP2) to phosphatidylinositol 3,4,5-triphosphate (PIP3) in the presence of ATP and Mg^2+ ions. The PIP3 product can be detected by displacement of biotin-PIP3 from energy transfer complexes consisting of europium labelled anti-GST monoclonal antibody, a GST-tagged Pleckstrin homology (PH) domain, biotinylated PIP3 and streptavidin-allophycocyanin (APC) by the time-resolved fluorescence resonance energy transfer (TR-FRET) (HTRF® PI3K enzyme assay, Millipore). […] The PIP3 product formed by PI3K activity displaces biotin-PIP3 from the complex and results in a loss of energy transfer (decreasing signal).
The compound to be tested was added, at the desired final concentrations, to a mixture of PIP2 substrate and recombinant PI3 kinase α, δ or γ enzymes (Millipore), and the mixture incubated for 2 hr at RT. […] A stopping solution containing biotinylated PIP3 and the detection mix containing the GST tagged GRP1 pleckstrin homology (PH) domain and fluorophores were then added and the mixture was incubated at RT for 15-18 hr, prior to detection in a fluorescence microplate reader (Varioskan® Flash, ThermoFisher Scientific).
(In general: TR-FRET usually uses a lanthanide donor and a delayed reading to cut background.)

In general, pIC50 refers to the IC50 on a negative log10 scale, so that one unit is a factor of ten. A word on the IC50: it is the concentration that gives 50% inhibition. As to `Nc1ncnc2c1c(-c1ccc(O)cc1)nn2Cc1nc2cccc(C#CCCCC(=O)O)c2c(=O)n1Cc1ccccc1Cl` [Example 4, 6-(2-((4-Amino-3-(4-hydroxyphenyl)-1H-pyrazolo[3,4-d]pyrimidin-1-yl)methyl)-3-(2-chlorobenzyl)-4-oxo-3,4-dihydroquinazolin-5-yl)hex-5-ynoic acid], the pIC50 (activity range, read-out: PI3 Kinase Inhibition IC50 values at stated Isozyme α) was over 7.30. Besides, the IC50 (read-out: PI3 Kinase Inhibition IC50 values at stated Isozyme (nM) α) worked out at 17 nM.
